Consider one molecule from patent US9562052B2, “Bicyclicpyridine derivatives” (Hoffmann-La Roche Inc., priority 2012, dated 2017).

Chains of the proteins cited; added tags and fusions are not shown.
UniProt Q01469, whole entry: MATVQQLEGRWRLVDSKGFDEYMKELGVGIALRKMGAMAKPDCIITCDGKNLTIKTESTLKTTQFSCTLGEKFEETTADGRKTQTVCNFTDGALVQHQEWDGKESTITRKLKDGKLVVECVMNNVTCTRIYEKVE
UniProt P15090, whole entry: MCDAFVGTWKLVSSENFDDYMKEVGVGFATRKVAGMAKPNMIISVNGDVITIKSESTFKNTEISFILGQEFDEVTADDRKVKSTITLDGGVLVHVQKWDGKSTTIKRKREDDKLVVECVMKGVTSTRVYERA

In one assay the target is human FABP5 (huFABP5) (Homo sapiens, UniProt Q01469).
The target of another assay is human FABP4 (huFABP4) (Homo sapiens, UniProt P15090).

`CC(C)(C)c1nc2c(c(-c3ncc(C(F)(F)F)[nH]3)c1-c1nn[nH]n1)CCCCC2`: the values for the IC50 against human FABP5 (huFABP5) and against human FABP4 (huFABP4) were 19.9 µM and 0.2 µM, respectively.
